Results on 1 substance are retold here after patent publication US6613897B1, “Compounds having glucuronic acid derivatives and glucosamine derivative in the structure, process for producing the same and utilization thereof” (Maruha Corporation, priority 1998, dated 2003).

Like-named read-outs stand apart in the source and are kept apart here.

The subject of test [1] is rabbit platelet rich plasma. Particulars: read-out: 50% Inhibitory Concentration; collagen-induced platelet aggregation, rabbit PRP.
For test [2], the system named is bovine aortic vascular endothelial cells. Nature of the test: Vascular endothelial cell growth promoting action (BrdU uptake). It counts as cell-based. The conditions noted are these: 20 hours. How it is done: Also, the compounds of the invention acted synergistically with vascular endothelial growth factor (VEGF), a cytokine known to act specifically on vascular endothelial cells and promote the growth of these cells, thereby showing a better vascular endothelial cell growth promoting action.
This test used bovine aortic vascular endothelial cells (passage number 3) as cells, and MEM containing 10% FCS (fetal calf serum), 100 units/mL penicillin G, and 100 μg/mL streptomycin as a culture medium. 96-Well microplates were seeded with the cells in an amount of 4×10^3 cells/well (4×10^4/mL; 100 μL), and the compounds of the formula (1) (Compound Examples 1 to 10) (10 μL; dissolved in culture medium) were each added in a predetermined end concentration (0, 0.1, 0.5, 1, 5, 10 μg/mL). Culture was performed for 20 hours at 37° C. and 5% CO2, and then the effect of the compounds on vascular endothelial cell growth was measured using “Cell Growth ELISA, BrdU Color Development Kit” (Boehringer Mannheim) (uptake of 5-bromodeoxyuridine (BrdU) was adopted as an indicator).

The test system is the same in test [3].

Consider “4-deoxy-α-L-threo-hexa-4-enepyranuronosyl-(1→3)-O-2-acetamide-2-deoxy-β-D-glucopyranosyl-(1→4)-3-O-β-D-glucopyranuronosyl-(1→3)-O-2-acetamide-2-deoxy-β-D-glucopyranosyl-(1→4)-3-O-β-D-glucopyranuronitol [Compound Example 10]”, for which the IC50 in test [1] turned out to be 3.5 nM. Further, the Promoting rate was found to be 101.1% in test [2] (compound concentration 0.1 μg/mL); 138.8% in test [2] (compound concentration 0.5 μg/mL); 178.3% in test [2] (compound concentration 1 μg/mL); 170.0% in test [2] (compound concentration 5 μg/mL); 135.8% in test [2] (compound concentration 10 μg/mL); 165.2% in test [3] (compound concentration 0.1 μg/mL + VEGF 10 ng/mL). Moreover, the Promoting rate is listed as 199.9% in test [3] (compound concentration 0.5 μg/mL + VEGF 10 ng/mL), 243.3% in test [3] (compound concentration 1 μg/mL + VEGF 10 ng/mL), 228.7% in test [3] (compound concentration 5 μg/mL + VEGF 10 ng/mL) and 194.0% in test [3] (compound concentration 10 μg/mL + VEGF 10 ng/mL).
